Data set [1] concerns the target human dopamine D2S receptor (Homo sapiens, UniProt P14416). Put plainly: Human dopamine D2S receptor radioligand binding assay (Eurofins). To be noted: [3H]Spiperone binding, Eurofins Discovery.
Data set [2] deals with human dopamine D4.4 receptor (Homo sapiens, UniProt P21917). Put plainly: Human dopamine D4.4 receptor radioligand binding assay (Eurofins). To be noted: Eurofins Discovery; for % Inhibition at 10 μM D4.4: [3H]Spiperone binding; for IC50: read-out: D4.4 IC50; for Ki: read-out: D4.4 Ki.
The target in data set [3] is human dopamine D3 receptor (Homo sapiens, UniProt P35462). The data set can be described thus: Human dopamine D3 receptor radioligand binding assay (Eurofins). Conditions: [3H]Spiperone binding, Eurofins Discovery.
Data set [4] concerns the target human dopamine D1 receptor (Homo sapiens, UniProt P21728). The data set can be described thus: Human dopamine D1 receptor radioligand binding assay (Eurofins). To be noted: [3H]SCH-23390 binding, Eurofins Discovery.
Data set [5] in a line: Kinetic solubility (shake flask, McIlvaine buffer). To be noted: 18 hours room temperature; for Solubility pH = 2.2: McIlvaine buffer pH 2.2, 100 µM; for Solubility pH = 6.8: McIlvaine buffer pH 6.8, 100 µM.
The target of data set [6] is Human recombinant dopamine D2L receptor (Homo sapiens, UniProt P14416). Put plainly: Human dopamine D2L receptor radioligand binding assay (Eurofins). Conditions: [3H]Spiperone binding, Eurofins Discovery.

Chains of the proteins cited; added tags and fusions are not shown. Lines headed by an entry give the natural chain unless they say otherwise; changes in a name come on top. Residues count along the entry.
UniProt P14416, whole entry: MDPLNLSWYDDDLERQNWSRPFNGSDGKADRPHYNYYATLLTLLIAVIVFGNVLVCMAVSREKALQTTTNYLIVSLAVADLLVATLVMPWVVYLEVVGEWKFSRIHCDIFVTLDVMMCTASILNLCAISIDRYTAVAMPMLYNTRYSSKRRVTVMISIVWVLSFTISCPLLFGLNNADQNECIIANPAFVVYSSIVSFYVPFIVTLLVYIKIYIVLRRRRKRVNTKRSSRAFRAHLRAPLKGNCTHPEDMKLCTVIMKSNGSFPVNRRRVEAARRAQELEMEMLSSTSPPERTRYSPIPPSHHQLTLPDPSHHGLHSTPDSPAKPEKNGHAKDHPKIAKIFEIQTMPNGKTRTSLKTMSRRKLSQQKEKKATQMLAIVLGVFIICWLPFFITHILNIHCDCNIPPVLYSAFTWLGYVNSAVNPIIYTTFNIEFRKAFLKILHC
UniProt P14416, 1-414 isoform 2: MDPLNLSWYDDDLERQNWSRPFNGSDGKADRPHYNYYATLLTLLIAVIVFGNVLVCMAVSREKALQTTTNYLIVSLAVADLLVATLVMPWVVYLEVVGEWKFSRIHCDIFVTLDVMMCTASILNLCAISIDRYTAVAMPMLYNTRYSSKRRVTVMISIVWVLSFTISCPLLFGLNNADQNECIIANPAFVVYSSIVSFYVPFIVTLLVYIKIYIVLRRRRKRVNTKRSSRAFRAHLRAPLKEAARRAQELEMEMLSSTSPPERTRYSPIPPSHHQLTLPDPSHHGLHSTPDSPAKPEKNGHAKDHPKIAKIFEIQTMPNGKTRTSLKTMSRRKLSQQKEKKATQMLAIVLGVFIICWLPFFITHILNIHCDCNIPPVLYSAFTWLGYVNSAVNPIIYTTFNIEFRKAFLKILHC
UniProt P21917, whole entry: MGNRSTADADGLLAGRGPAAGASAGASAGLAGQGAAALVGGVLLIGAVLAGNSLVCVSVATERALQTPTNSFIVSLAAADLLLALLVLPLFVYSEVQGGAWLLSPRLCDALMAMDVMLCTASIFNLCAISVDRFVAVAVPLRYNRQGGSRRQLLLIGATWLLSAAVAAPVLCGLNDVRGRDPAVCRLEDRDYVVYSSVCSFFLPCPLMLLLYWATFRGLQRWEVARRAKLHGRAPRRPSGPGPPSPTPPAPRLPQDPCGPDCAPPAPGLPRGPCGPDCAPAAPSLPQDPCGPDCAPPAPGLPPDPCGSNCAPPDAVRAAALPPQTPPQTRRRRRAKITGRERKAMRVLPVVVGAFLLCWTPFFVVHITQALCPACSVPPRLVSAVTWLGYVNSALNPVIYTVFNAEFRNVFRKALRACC
UniProt P35462, whole entry: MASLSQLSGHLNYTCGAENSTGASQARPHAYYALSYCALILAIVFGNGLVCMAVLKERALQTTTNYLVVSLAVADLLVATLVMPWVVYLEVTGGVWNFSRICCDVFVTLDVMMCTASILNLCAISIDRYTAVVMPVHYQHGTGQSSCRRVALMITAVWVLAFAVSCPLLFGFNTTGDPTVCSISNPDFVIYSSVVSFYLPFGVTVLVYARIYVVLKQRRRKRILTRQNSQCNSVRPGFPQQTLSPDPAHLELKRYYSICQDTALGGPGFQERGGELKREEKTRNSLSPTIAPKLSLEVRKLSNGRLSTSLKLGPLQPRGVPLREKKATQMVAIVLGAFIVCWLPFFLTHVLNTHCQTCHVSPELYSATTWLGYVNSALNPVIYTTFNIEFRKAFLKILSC
UniProt P21728, whole entry: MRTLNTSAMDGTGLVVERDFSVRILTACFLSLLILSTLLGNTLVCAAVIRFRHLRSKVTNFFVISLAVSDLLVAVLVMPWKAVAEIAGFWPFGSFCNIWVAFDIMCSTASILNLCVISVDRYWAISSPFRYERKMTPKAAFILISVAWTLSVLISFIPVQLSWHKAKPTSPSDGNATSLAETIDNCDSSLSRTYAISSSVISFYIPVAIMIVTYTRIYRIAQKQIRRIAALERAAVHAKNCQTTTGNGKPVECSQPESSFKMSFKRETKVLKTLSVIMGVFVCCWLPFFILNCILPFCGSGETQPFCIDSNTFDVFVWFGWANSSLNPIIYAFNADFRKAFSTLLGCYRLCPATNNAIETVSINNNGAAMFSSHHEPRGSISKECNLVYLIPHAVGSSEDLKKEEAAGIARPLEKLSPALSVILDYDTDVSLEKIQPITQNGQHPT

As for `O=C(c1ccc2ccccc2c1)N1CC2(CCN(Cc3c[nH]c4cc(F)ccc34)CC2)C1`, the “% Inhibition at 10 μM D2S” value in data set [1] is 21%. Moreover, in data set [2], the “% Inhibition at 10 μM D4.4” value turned out to be 95%, the IC50 came out at 28 nM and the Ki came out at 7.6 nM. In data set [3], the “% Inhibition at 10 μM D3” value was determined as 36%. The “% Inhibition at 10 μM D1” value in data set [4] was 32%. For the same compound, in data set [5], the “Solubility pH = 2.2” value turned out to be 85.0 µM and the “Solubility pH = 6.8” value stood at 79.7 µM. Moreover, the “% Inhibition at 10 μM D2L” value in data set [6] was found to be 34%.

Turning to `O=C(c1cccc(Cl)c1)N1CC2(CCN(Cc3c[nH]c4cc(F)ccc34)CC2)C1`, the “% Inhibition at 10 μM D2S” value in data set [1] came to 17%. For the same compound, in data set [2], the “% Inhibition at 10 μM D4.4” value is 95%, the IC50 came out at 790 nM and the Ki turned out to be 220 nM. Further, in data set [3], the “% Inhibition at 10 μM D3” value is given as 23%. Also, the “% Inhibition at 10 μM D1” value in data set [4] is listed as 10%. Also, the “% Inhibition at 10 μM D2L” value in data set [6] amounted to 35%.

For `O=C(c1ccc2c(c1)CCCC2)N1CC2(CCN(Cc3c[nH]c4cc(F)ccc34)CC2)C1`, the “% Inhibition at 10 μM D2S” value in data set [1] amounted to 22%. Besides, in data set [2], the “% Inhibition at 10 μM D4.4” value worked out at 93%, the IC50 is 260 nM and the Ki came out at 71 nM. For the same compound, in data set [3], the “% Inhibition at 10 μM D3” value amounted to 35%. Further, the “% Inhibition at 10 μM D1” value in data set [4] turned out to be 21%. Also, in data set [5], the “Solubility pH = 2.2” value is given as 82.7 µM and the “Solubility pH = 6.8” value is given as 79.6 µM. The “% Inhibition at 10 μM D2L” value in data set [6] is on record as 26%.

For the compound `O=C(c1ccc(Cl)c(Cl)c1)N1CC2(CCN(Cc3c[nH]c4cc(F)ccc34)CC2)C1`, in data set [1], the “% Inhibition at 10 μM D2S” value came to 11%. Besides, in data set [2], the “% Inhibition at 10 μM D4.4” value came out at 93%, the IC50 is 77 nM and the Ki turned out to be 21 nM. Moreover, in data set [3], the “% Inhibition at 10 μM D3” value was determined as 34%. The “% Inhibition at 10 μM D1” value in data set [4] stood at 24%. The “% Inhibition at 10 μM D2L” value in data set [6] was determined as 26%.

Usually % Inhibition stands for the share of the control response that was lost under treatment. By IC50 is commonly meant the concentration that inhibits the measured activity by half. Usually Ki stands for the dissociation constant of the complex between target and ligand, obtained from inhibition or displacement.

Source of the values: article PMC11191600 (ACS chemical neuroscience, 2024).
